This assay concerns MCF-7/Adr cells. The assay can be described thus: cells. To be noted: Homo sapiens, NCI/ADR-RES, 72 h, read-out: IC50 of adriamycin.

The structures appear in SMILES notation.

Take `COc1cccc2c1C(=O)c1c(O)c3c(c(O)c1C2=O)C[C@@](O)(C(=O)CO)C[C@@H]3O[C@H]1C[C@H](N)[C@H](O)[C@H](C)O1` [Adriamycin, adriamycin]: the IC50 was found to be 87.7 ± 15.8 µM.

The values are drawn from publication PMC3329467, “Stereoselective Regulations of P-Glycoprotein by Ginsenoside Rh2 Epimers and the Potential Mechanisms From the View of Pharmacokinetics” (PLoS ONE, 2012).
